Test results as given in US7365095B2, “Chromane and chromene derivatives and uses thereof” (Wyeth, priority 2005, dated 2008).

Amino acid sequences for entries named in this document (tags omitted). Residues count along the entry.
UniProt P28335, 33-458: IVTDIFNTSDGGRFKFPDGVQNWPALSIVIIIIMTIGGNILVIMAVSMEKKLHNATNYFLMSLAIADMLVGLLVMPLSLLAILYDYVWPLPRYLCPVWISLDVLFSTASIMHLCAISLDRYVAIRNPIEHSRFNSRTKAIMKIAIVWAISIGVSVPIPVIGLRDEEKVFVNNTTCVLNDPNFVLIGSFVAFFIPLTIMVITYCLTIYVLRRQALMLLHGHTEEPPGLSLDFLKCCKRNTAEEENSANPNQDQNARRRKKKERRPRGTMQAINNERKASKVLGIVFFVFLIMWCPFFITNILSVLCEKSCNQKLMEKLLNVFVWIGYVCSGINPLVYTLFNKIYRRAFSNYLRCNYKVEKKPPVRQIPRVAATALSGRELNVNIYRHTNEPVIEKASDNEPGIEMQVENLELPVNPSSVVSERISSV

Assays:
human 5-HT2C receptor = human 5-HT2C receptor (Homo sapiens, UniProt P28335); conditions: reference compounds; calcium mobilization
[1] = target: T1, human 5-hydroxytryptamine-2C (h5-HT2C) receptor (Homo sapiens, UniProt P28335); assay: [125I]DOI binding to membranes of CHO cells expressing h5-HT2C receptor; conditions: reference compounds; 95% confidence interval in brackets; [125I]DOI displacement
T1 construct: expressed in transfected cells; host or cells: CHO (Chinese Hamster Ovary) cells; membrane preparation

For `Clc1cccc(N2CCNCC2)c1` [mCPP, meta-chlorophenylpiperazine, reference compound], the EC50 (human 5-HT2C receptor) was 5.4 nM and the Ki [1] was 6.5 nM.
